Assay results: paper PMC5053573, “Structure-Based Design of Tetrahydroisoquinoline-7-carboxamides as Selective Discoidin Domain Receptor 1 (DDR1) Inhibitors” (Journal of Medicinal Chemistry, 2016)
Entries after “also recorded” stand apart in the source; their conditions may differ.

Amino acid sequences for entries named in this document (tags omitted). A change or cut given only in a name is not applied to a line headed by its entry.
UniProt Q08345: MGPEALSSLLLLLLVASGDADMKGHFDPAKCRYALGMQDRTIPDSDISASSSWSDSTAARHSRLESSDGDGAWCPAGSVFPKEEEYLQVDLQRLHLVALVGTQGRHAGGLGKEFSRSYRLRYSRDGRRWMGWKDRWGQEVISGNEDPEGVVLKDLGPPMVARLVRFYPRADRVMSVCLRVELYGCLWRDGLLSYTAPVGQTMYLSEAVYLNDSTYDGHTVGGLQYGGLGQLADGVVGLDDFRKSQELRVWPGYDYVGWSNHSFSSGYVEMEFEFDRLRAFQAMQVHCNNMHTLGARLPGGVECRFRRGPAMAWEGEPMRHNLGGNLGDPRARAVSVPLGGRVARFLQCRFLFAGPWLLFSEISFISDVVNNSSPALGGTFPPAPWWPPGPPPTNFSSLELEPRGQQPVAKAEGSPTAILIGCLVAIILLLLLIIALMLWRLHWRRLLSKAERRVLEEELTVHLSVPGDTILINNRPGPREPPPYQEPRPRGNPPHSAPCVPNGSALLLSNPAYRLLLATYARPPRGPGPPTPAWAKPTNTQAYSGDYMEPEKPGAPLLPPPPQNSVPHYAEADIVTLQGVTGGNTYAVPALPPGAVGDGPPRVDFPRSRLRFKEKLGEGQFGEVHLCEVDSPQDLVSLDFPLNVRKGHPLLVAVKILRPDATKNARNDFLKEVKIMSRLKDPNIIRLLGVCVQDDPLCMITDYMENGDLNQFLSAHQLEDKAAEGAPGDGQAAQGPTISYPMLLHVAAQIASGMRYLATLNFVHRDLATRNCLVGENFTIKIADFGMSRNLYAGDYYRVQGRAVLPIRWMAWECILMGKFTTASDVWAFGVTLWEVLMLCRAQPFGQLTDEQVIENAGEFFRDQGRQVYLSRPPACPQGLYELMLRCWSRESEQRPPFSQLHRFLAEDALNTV

What was measured:
[1] = Pharmacokinetics study in ICR mice; format: in vivo; settings: male, mouse, whole blood, iv, 1 mg/kg, read-out: CL (L/hr/kg) in mice (converted)
[2] = system: DDR1-mediated signaling in primary human lung fibroblasts; assay: Western blot analysis of DDR1 signaling in primary human lung fibroblasts; format: cell-based; settings: 24 h treatment
[3] = system: BLM-induced pulmonary fibrosis; assay: BLM-induced pulmonary fibrosis mouse model; format: in vivo, C57BL/6 mice; settings: oral 10 and 50 mg/kg BID for 2 weeks
[4] = system: DDR1 activation in lung cancer cell line H1299; assay: Western blot of DDR1 activation in H1299 cells; format: cell-based; settings: designated concentrations for 6 hours, 1.0 µM for indicated time
[5] = system: panel of 468 kinases (including 403 nonmutated kinases); settings: 1000 nM, 403 non-mutant kinases
DDR1 = DDR1 (Homo sapiens, UniProt Q08345); settings: binder
[6] = system: Panc-1 pancreatic cancer cells; assay: Liquid colony forming assay; settings: Panc-1 cells, 1.5-2 weeks
[7] = system: Panc-1 pancreatic cancer cells; assay: Wound healing (scratch) assay; settings: Panc-1 cells

Cc1cn(-c2cc(NC(=O)c3ccc4c(c3)CN(c3cncnc3)C[C@@H]4C)cc(C(F)(F)F)c2)cn1 [Compound 6j]
clearance [1]: 0.8 L/h/kg | activation of DDR1 (phospho-DDR1), Western blot [2]: dose-dependently suppressed; also recorded: inhibited DDR1-mediated signaling in a concentration-dependent manner | downstream signaling intermediate p38 (phospho-p38), Western blot [2]: dose-dependently suppressed | BLM-induced pathological changes of lung (H&E, Masson's trichrome) [3]: prevented these BLM-induced pathological changes in a dose-dependent manner; also recorded: prevents BLM-induced lung fibrosis | hydroxyproline content of lung [3]: dose-dependent suppression | activation of DDR1, Western blot [4]: inhibits activation of DDR1 in the dose.dependent and the time –dependent manner | Number of Hits S(1) [5]: 4 | Number of Hits S(10) [5]: 5 | Number of Hits S(35) [5]: 9 | %Ctrl @ 1000nM (DDR1): 0.25% | colony formation [6]: reduces colony formation | migration of cancer cells (scratch assay) [7]: migration of cancer cells
